miR-21 reporter: miR-21 reporter, rising signal | HeLa miR-21 FLuc reporter, luciferase, 48 h | Potency, µM (top dose mostly 38.3 µM), inactives show at the highest dose reporter change, positive = more light | 340,000 tested, under 10 active | AID 2288; active = well fitted rising curve with a large enough effect; inconclusive = small, poorly fitted or top-dose-only effect; inactive = no such curve, though single readings can be large or run the other way;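 note: % of control where 0% means no effect; miR-21 action dims this reporter so a rising signal means less miR-21 action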
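HeLa cells endogenously expressing miR-21, stably carrying CMV-driven firefly luciferase with a downstream miR-21 binding site, 2000 cells/well. Titrations up to approximately 40 uM, 48 hours; luciferase luminescence read.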
Nrf2 inh: Nrf2 pathway inhibition; A549 ARE-Fluc reporter, luciferase luminescence, 18-24 h; Potency, µM (series often up to 46 µM), for inactives: at the top dose activity change, negative = inhibition, usual class: inhibitors; 2.1% of 360,000 active; also: potency is read from the fitted curve at half-maximal effect; % is scaled to controls: 0 for no effect and ±100 for the full control effect; nearly all actives have a fitted effect of over 60% in size
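Reporter: ARE-Fluc in A549. Exposure: 18-24 h, 37 °C, 5% CO2, 5% FBS OPTI-MEM. Readouts: fluorescent cytotoxicity (CellTiter-Fluor), then luminescent Nrf2 signal after BugLite.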
A549 tox: kills or reduces viability of A549 cells in Nrf2 counter-screen; A549 ARE-Fluc cells, CellTiter-Fluor viability, 18-24 h; Potency, µM (highest dose often 46 µM), without a hit: at the top dose activity change, negative = cytotoxicity, usual class: inhibitors; 0.16% of 390,000 active; AID 504648; also: potency is read from the fitted curve at half-maximal effect; % is scaled to controls: 0 for no effect and ±100 for the full control effect
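A549 ARE-Fluc cells in 5% FBS OPTI-MEM, 5000 cells/well, rested 2 h then exposed to compounds in concentration-response for 18-24 h at 37 °C. Viability by CellTiter-Fluor fluorescence (Ex 405/Em 525) after 30 min; luciferase luminescence (BugLite, 15 min, RT) read afterwards.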
Mito fusion yeast: blocks mitochondrial division or promotes mitochondrial fusion; S. cerevisiae fusion-defective mutant growth rescue, CellTiterGlo 48 h; Potency, µM (highest dose often 46.1 µM), without a hit: top-dose growth rescue (activation), most hits filed as activators; 0.23% of 320,000 active; AID 485298; also: potency is read from the fitted curve at half-maximal effect; % of control where 0% means no effect; nearly all actives have a fitted effect of over 45% in size
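Yeast fusion mutant, YPEG (non-fermentable carbon), compound, 48 h at 37C non-permissive; CellTiterGlo added, 10 min RT, luminescence read. Rescued growth = division inhibition.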
Nrf2 ARE act: activators of Nrf2 (ARE) signaling | AREc32 ARE-luciferase reporter (MCF7-derived line), luminescence, 24 h | Potency, µM (titrated, usually from 46.1 µM), without a hit: at the top dose activation, most hits filed as activators | 0.31% of 410,000 active; also: potency is read from the fitted curve at half-maximal effect; % of control where 0% means no effect; nearly all actives have a fitted effect of over 65% in size
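Each well held 1000 AREc32 cells, which were incubated with compound for 24 hr at 37 deg C after overnight attachment, and ARE reporter activity was quantified by firefly luciferase luminescence.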
Numbers without * were called inactive; ? = inconclusive; · = no result; [ ] = remark or other dose. Most compounds without a hit are left out; they make up all but 2.3% or so of the library. Calls follow the shape of the dose curve; as a rule, active = well fitted curve in the direction sought with a large enough effect; inconclusive = small, poorly fitted or top-dose-only effect, or another doubt; inactive = no such curve, though single readings can be large; an effect the other way counts as inactive or inconclusive.

1: COC(C(=O)Nc1ccc(S(=O)(=O)Nc2cccc3ccccc23)cc1)c1ccccc1 (stereo not drawn)
2: O=C(/C(C=Nc1ccc(Br)cc1)=C(/O)c1ccco1)C(F)(F)F
3: O=C(/C(C=Nc1cccc(C(F)(F)F)c1)=C(/O)c1ccco1)C(F)(F)F
4: O=C(N/N=C/c1cccnc1)c1ccc([N+](=O)[O-])cc1
5: O=C(N/N=C/c1cccn1-c1ccc([N+](=O)[O-])cc1)c1cccnc1
6: Oc1ccccc1C1C=C(c2ccc3c(c2)OCO3)NC(c2ccc(Br)cc2)N1 (stereo not drawn)
Compound	1	2	3	4	5	6
miR-21 reporter	-1%	-40%	-53%	-1%	20%	·
Nrf2 inh	23µM*	?	27%	-3%	18µM*	1%
A549 tox	-7%	-6%	7%	-2%	?	-1%
Mito fusion yeast	20%	0%	-5%	2%	-2%	·
Nrf2 ARE act	0%[9.22 µM]	29%	7.9µM*	1%	-1%	·

From entry 5 up to 6, as listed above:
5: O=C(N/N=C/c1cccn1-c1ccc([N+](=O)[O-])cc1)c1cccnc1
6: Oc1ccccc1C1C=C(c2ccc3c(c2)OCO3)NC(c2ccc(Br)cc2)N1 (stereo not drawn)
Compound	5	6
miR-21 reporter	20%	·
Nrf2 inh	18µM*	1%
A549 tox	?	-1%
Mito fusion yeast	-2%	·
Nrf2 ARE act	-1%	·

Continued.
7: Cn1ncc2c(O/N=C(\N)c3ccc(C(F)(F)F)cc3)ncnc21
8: Cc1ccc(C(=O)NNc2ncnc3c2cnn3C)cc1
9: COc1ccc(C(=O)Nc2nc3ccccc3[nH]2)cc1OC
10: CCOc1ccc(C(=O)Nc2nc3ccccc3[nH]2)cc1OCC
11: Cc1cc(N2C3CCC2CC(O)(c2ccc(F)cc2)C3)nc(-c2ccccc2)n1 (stereo not drawn)
12: Cc1ccnc(N2C3CCC2CC(O)(c2ccccc2)C3)n1 (stereo not drawn)
Compound	7	8	9	10	11	12
miR-21 reporter	?	-1%	-66%	14%	12%	-4%
Nrf2 inh	18µM*	10%	·	10µM*	23µM*	6%
A549 tox	?	-7%	1%	-12%	?	-5%
Mito fusion yeast	-2%	5%	11%	-2%	8%	-10%
Nrf2 ARE act	-4%	-1%	1%	7%	4%	0%

13: CC(C)CCn1c(=O)c2cccnc2n(CC(=O)Nc2ccccc2F)c1=O
14: Cn1c(CNC(=O)CSc2nc(-c3ccccc3F)nc3cc(=O)[nH]n23)nc2ccccc21
15: COc1ccc(CN2C(=O)N(c3ccccc3)C(=O)C2c2ccccc2)cc1COc1ccc(NC(C)=O)cc1 (stereo not drawn)
16: Cc1c(C(=O)Nc2ccc(F)cc2)oc2ccc(S(=O)(=O)N3CC(C)CC(C)C3)cc12 (stereo not drawn)
17: CCc1ccc(S(=O)(=O)c2nnn(-c3ccc(F)cc3)c2N)cc1
18: COc1cccc(-n2nnc(S(=O)(=O)c3ccc(C)cc3)c2N)c1
Compound	13	14	15	16	17	18
miR-21 reporter	-2%	0%	·	15%	13%	1%
Nrf2 inh	4%	?	-22%	7.3µM*	13µM*	5%
A549 tox	-6%	7%	-1%	-15%	-4%	13%
Mito fusion yeast	·	·	·	0%	·	-5%
Nrf2 ARE act	0%	-1%	·	0%	-1%	0%

Sorted by value in miR-21 reporter (rising): 4 of the compounds above.
no.	Compound	miR-21 reporter	Mito fusion yeast	Nrf2 ARE act
2	O=C(/C(C=Nc1ccc(Br)cc1)=C(/O)c1ccco1)C(F)(F)F	-40%	0%	29%
1	COC(C(=O)Nc1ccc(S(=O)(=O)Nc2cccc3ccccc23)cc1)c1ccccc1 (stereo not drawn)	-1%	20%	0%[9.22 µM]
17	CCc1ccc(S(=O)(=O)c2nnn(-c3ccc(F)cc3)c2N)cc1	13%	·	-1%
10	CCOc1ccc(C(=O)Nc2nc3ccccc3[nH]2)cc1OCC	14%	-2%	7%

Copied from the list:
Under Nrf2 ARE act, compound 18 is listed with 0%
Under miR-21 reporter, compound 17 is listed with 13%

(further entries)
19: CCC(=O)N1CCc2cc(Br)cc(S(=O)(=O)N3CCC(C(=O)Nc4cccc(C)c4)CC3)c21
20: CCCCN(CCCC)CC1OCc2ccccc2CO1
21: Cc1ccc[n+](CC2OCc3ccccc3CO2)c1
22: CCOC(=O)N1CCN(c2nc(C(F)(F)F)nc3c(C)cc(C)cc23)CC1
23: Cc1cc(C)c2nc(C(F)(F)F)nc(N3CC(C)OC(C)C3)c2c1 (stereo not drawn)
24: CCOc1ccccc1NC(=O)CSc1nncc2ccccc12
Compound	19	20	21	22	23	24
miR-21 reporter	29%	2%	1%	-1%	0%	-1%
Nrf2 inh	8.2µM*	5%	7.3µM*	23µM*	-3%	23µM*
A549 tox	-8%	0%[1.84 µM]	0%	-10%	11%	-13%
Mito fusion yeast	·	-2%	-1%	3%	-4%	15%
Nrf2 ARE act	-1%	0%	-1%	-1%	0%	29%

25: COc1ccc(OC)c(NC(=O)CSc2nncc3ccccc23)c1
26: COc1ccc(NC(=O)C2CCN(S(=O)(=O)c3ccc4[nH]c(=O)ccc4c3)CC2)c(OC)c1
27: CCOc1ccc(CN(C)C(=O)[C@H](Cc2ccccc2)NC(=O)OCc2ccccc2)cc1OC
28: COc1ccc(CN(C)C(=O)C(Cc2ccccc2)NC(=O)c2ccccc2)cc1F (stereo not drawn)
29: Cc1cc2c(s1)c1cnn(Cc3ccc(-c4ccccc4)cc3)c(=O)c1n2C
30: O=C(COc1ncnc2ccccc12)Nc1cccc(S(=O)(=O)N2CCOCC2)c1
Compound	25	26	27	28	29	30
miR-21 reporter	1%	-1%	?	·	·	-1%
Nrf2 inh	-10%	·	21µM*	-29%	13%	5%
A549 tox	?	-1%	?	-1%	-9%	-3%
Mito fusion yeast	4%	·	11%	7%	·	-5%
Nrf2 ARE act	0%	0%	0%	-1%	·	0%

31: Cc1onc(-c2ccccc2Cl)c1C(=O)OCC(=O)Nc1cccc(S(=O)(=O)N2CCOCC2)c1
32: O=C(CSc1nc2cc(Cl)ccc2s1)Nc1cccc(S(=O)(=O)N2CCOCC2)c1
33: CCCc1nc2ccccc2c(C(=O)OCC(=O)Nc2ccc(S(=O)(=O)N3CCOCC3)cc2)c1CC
34: O=C(CSc1ncnc2ccccc12)Nc1cccc(S(=O)(=O)N2CCOCC2)c1
35: CC(C)CCn1c(SC(C)C#N)nc2ccccc2c1=O (stereo not drawn)
36: CC1(C)C2CCC1(C)C(NC(=O)COC(=O)c1ccc(S(C)(=O)=O)c([N+](=O)[O-])c1)C2 (stereo not drawn)
Compound	31	32	33	34	35	36
miR-21 reporter	15%	5%	?	3%	·	·
Nrf2 inh	18µM*	23µM*	23µM*	16µM*	-26%	?
A549 tox	-7%	-5%	?	-10%	6%	4%
Mito fusion yeast	3%	25%	1%	7%	·	·
Nrf2 ARE act	0%	0%	0%	15%	·	·

37: COc1ccc(OC)c(NC(=O)Cn2cnc3onc(-c4ccc(Cl)cc4)c3c2=O)c1
38: COc1ccc(C)cc1NC(=O)c1ccc(=O)n(Cc2ccccc2)c1
39: CN(C)CCCN(Cc1ccccc1)C(=S)Nc1cccc(C(F)(F)F)c1
40: CCCN(Cc1ccccc1)C(=S)Nc1cccc(C(F)(F)F)c1
41: CCCCn1c(-c2ccc(Br)cc2F)nc2c1c(=O)[nH]c(=O)n2CC(C)C
42: CC(C)(C)C(=O)OCCNc1nc(-c2cccs2)nc2ccccc12
Compound	37	38	39	40	41	42
miR-21 reporter	9%	-9%	-7%	3%	1%	·
Nrf2 inh	1%[9.27 µM]	·	4%	21µM*	21µM*	-11%
A549 tox	1%	-2%	19%	2%	?	-12%
Mito fusion yeast	·	·	-7%	-1%	10%	·
Nrf2 ARE act	4%	5%	-1%[9.22 µM]	3%	5%	·

43: COc1cc2cc(C(=O)N3CCOCC3)cc(-c3ccc(C)cc3)c2cc1OC
44: O=C(N/N=C/c1ccco1)c1cc(-c2ccccc2)nc2ccccc12
45: CCCc1ccc(-c2cc(C(=O)N/N=C/c3ccc([N+](=O)[O-])o3)c3ccccc3n2)cc1
46: O=C(N/N=C/c1ccc([N+](=O)[O-])o1)c1cc(-c2cccc(Br)c2)nc2ccccc12
47: O=C(CN1CCN(c2ccccn2)CC1)Nc1ccccc1
48: O=C(CN1CCN(c2ccccn2)CC1)Nc1cccc(S(=O)(=O)N2CCCC2)c1
Compound	43	44	45	46	47	48
miR-21 reporter	7%	3%	22%	-8%	-2%	5%
Nrf2 inh	18µM*	7%	10µM*	13µM*	·	12µM*
A549 tox	?	0%	-21%	?	-10%	-4%
Mito fusion yeast	?	-3%	26%	-5%	?	-3%
Nrf2 ARE act	0%	16%	17%	?	1%	-1%
